{"source": "patent US11505525B2", "about": "“Branched discrete PEG constructs” (Quanta BioDesign, Ltd., priority 2011, dated 2022)", "experiment": "PK data in normal female athymic mice", "excerpt": "In a different study, PK data was taken on normal athymic mice injected with: mCC49 Fab′-dPEG12-Tris(dPEG12-Tris(m-dPEG11)3)3, mCC49 Fab′-dPEG12-Tris(dPEG24-acid)3, mCC49 Fab′-dPEG12-Tris(m-dPEG24)3, and mCC49 Fab′-dPEG12-Tris(dPEG12-acid)3.\nPK data was taken with additional normal female athymic mice as follows: […]", "note": "Values joined by “and” are separate entries in the source; they are usually repeats but may differ in a detail not shown here. Equal entries are not always repeated."}
{"substance": "mCC49 Fab′-NEM [Fab-NEM, reference compound]", "values": [{"measurement": "PK data (percent injected dose), individual mice 1-3", "setting": "0 hrs after injection", "value": "29.58 and 30.89 and 41.48"}, {"measurement": "PK data (percent injected dose), individual mice 1-3", "setting": "0.5 hrs after injection", "value": "13.61 and 0.95 and 17.79"}, {"measurement": "PK data (percent injected dose), individual mice 1-3", "setting": "1 hrs after injection", "value": "5.83 and 5.36 and 8.27"}, {"measurement": "PK data (percent injected dose), individual mice 1-3", "setting": "2 hrs after injection", "value": "5.01 and 4.65 and 5.18"}, {"measurement": "PK data (percent injected dose), individual mice 1-3", "setting": "3 hrs after injection", "value": "4.39 and 2.72 and 3.21"}, {"measurement": "PK data (percent injected dose), individual mice 1-3", "setting": "6 hrs after injection", "value": "2.68 and 1.93 and 9.25"}, {"measurement": "PK data (percent injected dose), individual mice 1-3", "setting": "22 hrs after injection", "value": "0.23 and 0.18 and 0.2"}, {"measurement": "PK data (percent injected dose), individual mice 1-3", "setting": "28 hrs after injection", "value": "0.48 and 0.29 and 0.14"}, {"measurement": "PK data (percent injected dose), individual mice 1-3", "setting": "48 hrs after injection", "value": "0.1 and 0.09 and 0.13"}]}
